We go through 1 molecule from US20250388669A1 (published 2025).

The target in the assay is T1, B7H3 (human, UniProt Q5ZPR3 29-466, limits assumed).
T1 sequence (looked up): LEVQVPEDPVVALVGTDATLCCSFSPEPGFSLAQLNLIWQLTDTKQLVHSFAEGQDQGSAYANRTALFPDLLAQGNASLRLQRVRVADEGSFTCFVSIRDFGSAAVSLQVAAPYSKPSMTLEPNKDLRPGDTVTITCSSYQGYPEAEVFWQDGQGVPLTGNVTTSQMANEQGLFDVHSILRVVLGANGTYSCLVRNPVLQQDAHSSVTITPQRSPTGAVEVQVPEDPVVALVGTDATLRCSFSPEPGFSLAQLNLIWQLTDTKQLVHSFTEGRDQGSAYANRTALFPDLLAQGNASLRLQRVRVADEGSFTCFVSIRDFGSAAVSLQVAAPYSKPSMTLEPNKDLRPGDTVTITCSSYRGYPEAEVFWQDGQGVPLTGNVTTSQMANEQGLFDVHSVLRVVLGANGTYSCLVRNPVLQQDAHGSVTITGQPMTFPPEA
Nature of the assay: ELISA or FCM (Example 2).

B1: Ly2138 (other)
chain 1: QVQLVQSGAEVKKPGASVKVSCKASGYTFTSYVMHWVRQKPGQGLEWIGYINPYNEGTESTDKFKGRATMTSDKSTSTVYMELSSLRSEDTAVYYCASIYYGYEGTYFGVWGQGTLVTVSSASTKGPSVFPLAPSSKSTSGGTAALGCLVKDYFPEPVTVSWNSGALTSGVHTFPAVLQSSGLYSLSSVVTVPSSSLGTQTYICNVNHKPSNTKVDKKVEPKSCGGGGSGGGGSEVQLVESGGGLVQPGGSLRLSCAASGFTFSTYAMNWVRQAPGKGLEWVGRIRSKYNNYATYYADSVKGRFTISRDDSKNSLYLQMNSLKTEDTAVYYCVRHGNFGNSYVSWFAYWGQGTLVTVSSGGGGSDKTHTCPPCPAPEAAGPSVFLFPPKPKDTLMISRTPEVTCVVVDVSHEDPEVKFNWYVDGVEVHNAKTKPREEQYNSTYRVVSVLTVLHQDWLNGKEYKCKVSNKALPAPIEKTISKAKGQPREPQVYTLPPSREEMTKNQVSLWCLVKGFYPSDIAVEWESNGQPENNYKTTPPVLDSDGSFFLYSKLTVDKSRWQQGNVFSCSVMHEALHNHYTQKSLSLSPGGGGGSGGGGSGGGGSGGGGSQVQLVQSGAEVKKPGASVKVSCKASGYTFTSYYIHWVRQAPGQGLEWIGCIYPGNVNTNYNEKFKDRATLTVDTSISTAYMELSRLRSDDTAVYFCTRSHYGLDWNFDVWGQGTTVTVSS
chain 2: QVQLVQSGAEVKKPGASVKVSCKASGYTFTSYVMHWVRQKPGQGLEWIGYINPYNEGTESTDKFKGRATMTSDKSTSTVYMELSSLRSEDTAVYYCASIYYGYEGTYFGVWGQGTLVTVSSASTKGPSVFPLAPSSKSTSGGTAALGCLVKDYFPEPVTVSWNSGALTSGVHTFPAVLQSSGLYSLSSVVTVPSSSLGTQTYICNVNHKPSNTKVDKKVEPKSCGGGGSGGGGSQAVVTQEPSLTVSPGGTVTLTCRSSTGAVTTSNYANWVQQKPGQAPRGLIGGTNKRAPWTPARFSGSLLGGKAALTITGAQAEDEADYYCALWYSNLWVFGGGTKLTVLGGGGSDKTHTCPPCPAPEAAGPSVFLFPPKPKDTLMISRTPEVTCVVVDVSHEDPEVKFNWYVDGVEVHNAKTKPREEQYNSTYRVVSVLTVLHQDWLNGKEYKCKVSNKALPAPIEKTISKAKGQPREPQVYTLPPSREEMTKNQVSLSCAVKGFYPSDIAVEWESNGQPENNYKTTPPVLDSDGSFFLVSKLTVDKSRWQQGNVFSCSVMHEALHNRFTQKSLSLSPGGGGGSGGGGSGGGGSGGGGSDIQMTQSPSSLSASVGDRVTITCHASQNIYVWLNWYQQKPGKAPKLLIYKASNLHTGVPSRFSGSGSGTDFTLTISSLQPEDFATYYCQQGQTYPYTFGGGTKVEIK
light: EIVLTQSPATLSLSPGERATLSCRASSSVSYMHWYQQKPGQAPRPWIYATSNLASGIPARFSGSRSGTDYTLTISSLEPEDFAVYYCQQWSSNTLTFGGGTKVEIKRTVAAPSVFIFPPSDEQLKSGTASVVCLLNNFYPREAKVQWKVDNALQSGNSQESVTEQDSKDSTYSLSSTLTLSKADYEKHKVYACEVTHQGLSSPVTKSFNRGEC
notes: Tri-specific antibody: B7H3 Fabs, central CD3 Fv, terminal CD28 Fv; Flexible linker is (G4S)2
With B1, the binding result was “binds”.
